Measurements as given in patent publication US7582639B2, “N-deacetylthiocolchicine derivatives, their use and pharmaceutical formulations containing them” (priority 2004, dated 2009).

System: A2780/dx (Pgp+)
Assay type: cell-based
Details: after 72 hours; concentration that inhibits cell growth by 50% compared with non treated cells; read-out: IC50 (nM) ± S.E. A2780/dx (Pgp+)
Method: The activity of the compounds of formula I was evaluated on a large number of tumour cells expressing different resistance.
Cytotoxic activity was evaluated according to the procedure described by M. C.

Substance	IC50 [nM]
N-Deacetylthiocolchicine 1,4-phenylenediamine bis-urea [E.g. 4]	3840 ± 224
trans-1,4-Cyclohexanedicarboxylic acid bis-(N-deacetylthiocolchicine)amide [E.g. 2]	1270 ± 382
3,5-Benzenedicarboxylic acid bis-(N-deacetylthiocolchicine)amide [E.g. 3]	922 ± 164
